## AlphaSeq binding of Ab-95 light chain variants to a spike HR2 peptide

Source: Engelhart et al. 2022 (doi:10.1038/s41597-022-01779-4), MIT Lincoln Laboratory and A-Alpha Bio; data file from the FLAb repository.

Target peptide (SARS-CoV-2 spike, HR2 region): PDVDLGDISGINAS

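The parent was found by panning a naive human phage display library on the peptide. AAYL52 was designed without a model: most single CDR substitutions and a random sample of double and triple ones. In AlphaSeq, yeast of one mating type display the scFv and yeast of the other type display the target. Mating (16 h, 30 °C) was followed by selection of diploids and sequencing of their barcodes. The ratio of observed to expected reads was calibrated, replicate by replicate, on BCL2-family standards whose Kd was known from biolayer interferometry. Mating was done three times.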

Parent scFv Ab-95: VH joined to VL by a (GGGGS)3 linker. Changes lie in the light chain CDRs alone.
VH: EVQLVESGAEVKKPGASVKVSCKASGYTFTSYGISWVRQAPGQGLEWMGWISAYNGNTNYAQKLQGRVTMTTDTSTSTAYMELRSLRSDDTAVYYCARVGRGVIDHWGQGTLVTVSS
VL: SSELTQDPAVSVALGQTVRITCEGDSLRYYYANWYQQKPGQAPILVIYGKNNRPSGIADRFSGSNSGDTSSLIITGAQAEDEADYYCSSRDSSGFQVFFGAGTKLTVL

Changes read parent residue, position, new residue, counted from the first residue of the VL shown. All variants listed here change R28 of the VL, counted from its first residue. The read-out is the apparent dissociation constant on a log10 scale (nM): the lower, the stronger. Averages over replicates are reported, and they cover detected replicates only. "nd" marks a missing value. The strain was present, yet no cells mated with the target were sequenced in that replicate, which points to weak or no binding. Empty control strains, which show no peptide, gave a signal in 28% of pairings with library AAYL52; the median was 3.91 and 95% of these signals were weaker than 2.90. No background was subtracted.

Variant R28W+R53C+Q96P showed 4.50, nd, nd. With R28E+G49W+V97M the result was 4.65, nd, nd. Variant R28F+G94Y+V97S showed 2.94, 2.63, 2.55 (mean 2.71). Variant R28Y+S55K+G94C gave 3.69, 3.51, nd (mean 3.60). With R28I+S55W+V97I the result was 5.16, 3.40, 3.35 (mean 3.97). For R28N+N52S+S55E, the assay gave 2.03, 2.09, 1.56 (mean 1.89). For G24T+R28K+K50N, the assay gave 2.00, 2.01, 1.36 (mean 1.79).

For R28Q+A32K+K50Q, the assay gave 1.92, 2.05, 1.49 (mean 1.82). Variant R28K+Y30L+R90V showed nd, nd, 3.23. Variant E23V+R28N+G49T gave 3.20, 4.37, 3.36 (mean 3.65). With R28D+Y29I+N51H the result was nd, 4.75, nd. Variant R28L+G94L gave 3.40, 2.91, 3.86 (mean 3.39). Variant R28H+N52C+F98G showed 3.69, nd, 4.34 (mean 4.01). For R28W+Y31K+P54G, the assay gave 3.91, nd, nd.

Variant R28N+Y31Q+S93P gave 2.19, 2.79, 1.44 (mean 2.14). Variant R28Y+G49Q+S88A gave 3.30, nd, nd. For E23T+R28D+Y31R, the assay gave 2.26, 2.36, 1.74 (mean 2.12). Variant R28W+Y31P+S93M showed 2.19, 3.15, 2.64 (mean 2.66). With R28Y+N33L+Q96S the result was nd, nd, nd. With R28G+S55V the result was 2.01, 2.48, 2.08 (mean 2.19). Variant R28A+P54W+S92H gave nd, nd, nd.

Variant R28S gave 2.22, 2.19, 1.97 (mean 2.13). Variant R28L+N51V+N52E showed 2.68, 3.06, 3.71 (mean 3.15). Variant R28K+R90C+S93N showed nd, nd, nd. For R28M+Y30G+G49M, the assay gave 2.93, 2.75, 2.69 (mean 2.79). With S26N+R28P+V97H the result was nd, nd, nd. With E23F+R28Y+N33I the result was 5.18, nd, nd. Variant R28P+K50I+F95T showed 2.54, 2.23, 2.12 (mean 2.30).

Variant R28N+Y29N+A32R gave 1.92, 1.98, 1.67 (mean 1.86). Variant S26R+R28T+F95L gave nd, nd, nd. Variant R28S+N51K+S93A gave 3.50, 4.74, nd (mean 4.12). With L27D+R28Y+R90H the result was 3.42, 4.08, 4.13 (mean 3.88). With R28K+S89P+Q96R the result was 2.31, 1.62, 1.77 (mean 1.90). For S26R+R28F+S89D, the assay gave 3.97, nd, nd. With R28F+Y29K+A32Y the result was 3.63, nd, nd.

For E23N+R28E+N33Y, the assay gave 4.29, nd, 3.54 (mean 3.92). With R28V+N51T+S92K the result was nd, 3.23, 4.06 (mean 3.65). Variant G24A+R28W+P54S gave nd, nd, 3.99. Variant R28F+G49E+D91P gave nd, nd, 3.89. With R28P+P54Y+F95Q the result was 3.24, 3.00, nd (mean 3.12).

Extract of 6 entries:

{"changes": "R28H+N52C+F98G", "log10 Kd, replicates": "3.69, nd, 4.34", "mean log10 Kd (nM)": "4.01"}
{"changes": "R28N+Y31Q+S93P", "log10 Kd, replicates": "2.19, 2.79, 1.44", "mean log10 Kd (nM)": "2.14"}
{"changes": "R28F+Y29K+A32Y", "log10 Kd, replicates": "3.63, nd, nd", "mean log10 Kd (nM)": "3.63"}
{"changes": "S26R+R28T+F95L", "log10 Kd, replicates": "nd, nd, nd", "mean log10 Kd (nM)": "nd"}
{"changes": "R28I+S55W+V97I", "log10 Kd, replicates": "5.16, 3.40, 3.35", "mean log10 Kd (nM)": "3.97"}
{"changes": "R28D+Y29I+N51H", "log10 Kd, replicates": "nd, 4.75, nd", "mean log10 Kd (nM)": "4.75"}

In this assay the parent's reference entry averaged 2.31; its copy inside this library read 2.25.